Data as given in ChEMBL document CHEMBL1132575 (J Med Chem, 1999).

By UniProt entry, the sequences of proteins in these tests, tags left out.
UniProt P08908, whole entry: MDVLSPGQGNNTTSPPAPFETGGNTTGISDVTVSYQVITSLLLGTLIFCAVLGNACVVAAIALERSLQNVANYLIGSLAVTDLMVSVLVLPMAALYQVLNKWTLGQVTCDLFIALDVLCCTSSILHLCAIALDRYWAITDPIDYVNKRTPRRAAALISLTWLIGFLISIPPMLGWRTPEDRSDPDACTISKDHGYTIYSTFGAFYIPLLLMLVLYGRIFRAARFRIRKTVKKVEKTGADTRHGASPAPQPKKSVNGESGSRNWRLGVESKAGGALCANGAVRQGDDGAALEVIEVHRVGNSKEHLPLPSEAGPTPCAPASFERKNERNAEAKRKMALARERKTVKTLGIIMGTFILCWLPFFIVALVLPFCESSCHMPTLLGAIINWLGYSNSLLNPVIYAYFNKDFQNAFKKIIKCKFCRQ

Target: 5-hydroxytryptamine receptor 1A (Homo sapiens, UniProt P08908)
Experiment: In vitro receptor binding affinity for cloned human 5-hydroxytryptamine 1A receptor

Ki: 230 nM
SMILES: CNS(=O)(=O)Cc1ccc2[nH]cc(CCN(C)C)c2c1
